From patent US20130225529A1, “PHOSPHO-ESTER DERIVATIVES AND USES THEREOF” (priority 2012, published 2013)

How the values were obtained:
[1] = Pharmacokinetic study of phosphosulindac amide and sulindac, single oral dose; assay type: in vivo, mice
[2] = test system: AGS human gastric cancer cells; assay: Gastric cancer subcutaneous model; assay type: in vivo, mice; settings: i.p. in corn oil, 3 weeks; PSA-B 200, PSA-G 200, PIA-B 160, PVA-T 100 mg/kg
[3] = test system: SW-480 colon cancer cells; assay: SW-480 colon cancer xenografts, PSA; settings: 100 mg/kg/day oral, end of study, vs control
[4] = test system: intestinal tumors of Apc^Min/+ mice; assay: Efficacy in Apc^Min/+ mice, PSA; settings: 100 mg/kg/d oral gavage, 6 weeks, vs control
[5] = test system: A431 human squamous cell carcinoma cells; assay: Skin cancer intradermal model; assay type: in vivo, mice; settings: hydrogel, topical, 2 weeks, estimated 80 mg/kg

With `CCOP(=O)(OCC)OCCCCNC(=O)CC1=C(C)C(=Cc2ccc([S+](C)[O-])cc2)c2ccc(F)cc21` (stereo not shown) the “blood and tissue levels of intact compound” value ([1]; compared with corresponding carboxylic ester compound) was “significant blood and tissue levels of intact compound”, the Cmax ([1]; read-out: Cmax of PSA, single oral dose 100 mg/kg PSA) was 24 µM and the “detection of intact PSA in serum” value ([1]; single oral dose 100 mg/kg) was “undetectable at 24 hours”. For the same compound, the “generation of sulindac or sulindac sulfone” value ([1]; single oral dose 100 mg/kg) was “no detectable sulindac or sulindac sulfone”, the “Tmax of PSA” value ([1]; single oral dose 100 mg/kg PSA) was 15 min and the “AUC0-24 h, PSA administration” value ([1]; single oral dose 100 mg/kg PSA, label = analyte) was 54.04 µM·h. The tumor growth inhibition [2] was 67.7%, the “reduction of growth of colon cancer xenografts” value [3] was 41% and the “reduction of number of all intestinal tumors” value [4] was 85%. For the same compound, the tumor growth inhibition [5] was 81.1%.
